One test addresses OGG1 (Homo sapiens (Human), UniProt O15527). In words: In vitro OGG1 activity assay. The format is biochemical. To be noted: 800 pM OGG1 enzyme, 2 nM human APEX1, 10 nM 8-oxoA:C substrate.
The subject of the next test is MLE12 cells. In words: Cell viability assay in MLE12 cells (resazurin). The note with it: read-out: Cell Viability (IC50), TNF-α 20 ng/ml, resazurin added after 24 hours culture.
The test system of a further test is CCL2. In words: Mouse CCL2 assay in MLE12 cells. The note with it: read-out: CCL2 (EC50), TNF-α 20 ng/ml, supernatant after 30 hours, HTRF.

Amino acid sequences for entries named in this document (tags omitted).
UniProt O15527, whole entry: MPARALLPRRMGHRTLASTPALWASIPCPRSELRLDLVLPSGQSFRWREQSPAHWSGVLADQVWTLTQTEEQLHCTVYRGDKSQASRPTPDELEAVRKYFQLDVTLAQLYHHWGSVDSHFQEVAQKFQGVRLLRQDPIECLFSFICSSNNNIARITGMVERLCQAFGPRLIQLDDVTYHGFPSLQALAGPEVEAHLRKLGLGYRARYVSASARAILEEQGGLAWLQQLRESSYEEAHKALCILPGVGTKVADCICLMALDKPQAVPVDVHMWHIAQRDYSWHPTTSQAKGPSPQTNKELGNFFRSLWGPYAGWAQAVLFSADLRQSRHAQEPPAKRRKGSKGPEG

Regarding `COc1cc(NC(=O)[C@H]2CC[C@@H](n3c(=O)[nH]c4c(C(=O)NCCC(N)=O)cccc43)CC2)ccc1C` (relative stereo), on OGG1, the IC50 worked out at 0.00577 µM.
With `COc1cc(NC(=O)[C@H]2CC[C@@H](n3c(=O)[nH]c4c(C(=O)N5CCC(N(C)C)CC5)cccc43)CC2)ccc1C` (relative stereo), the figures for the IC50 on OGG1 and in the test with MLE12 cells were 0.14 µM and 17.3 µM, respectively. In addition, in the test with CCL2, the EC50 amounted to 31.2 µM.

The values above are taken from US11970474B2, “Substituted benzodiazoles and use thereof in therapy” (THOMAS HELLEDAYS STIFTELSE FÖR MEDICINSK FORSKNING, priority 2018, dated 2024).
